A value given as a limit tells only on which side of the number the result lay.

Amino acid sequences for entries named in this document (tags omitted). Residues count along the entry.
UniProt Q16552, 20-155 limits assumed: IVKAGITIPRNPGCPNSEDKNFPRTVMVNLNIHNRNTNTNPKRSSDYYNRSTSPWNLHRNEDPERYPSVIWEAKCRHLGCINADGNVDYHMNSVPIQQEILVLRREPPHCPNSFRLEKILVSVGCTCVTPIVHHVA

Experiment [1] deals with IL-17A induced secretion of IL-6 in primary human RASF cells. The experiment in a line: Inhibition of IL17A induced secretion of IL6 in human rheumatoid arthritis synovial fibroblast (RASF) cells. The settings on record: read-out: RASF. Here is the method: This assay was used to determine the extent of inhibition of IL-17A induced secretion of IL-6 in primary human rheumatoid synovial fibroblast (RASF) cells by compounds of the invention. IL-17A is known to stimulate IL-6 production in RASF cells.
Low passage (passage 2-8) Primary human RASF cells (Asterand) were maintained in maintenance medium. Cells were detached from flasks by tryptic digestion and the cell density of the suspension determined. To each well of a 96 well culture plate was added 100 μL of seeding medium containing 50,000 cells/mL and the plate incubated overnight in a humidified 37° C., 5% CO2 incubator. The medium was replaced with fresh assay medium and cells were incubated for additional 5 hours in a humidified 37° C., 5% CO2 incubator prior to stimulation with recombinant human IL-17A (“rhIL-17A”). Prior to addition to cells, rhIL-17A (30 ng/mL) in assay medium was incubated with either DMSO alone, compounds, or anti-IL17 receptor antibody (3 μg/mL) for 1 hour at 37° C. The final concentration of DMSO in all samples was 0.25%. The final concentration of compounds varied from 0.03 μM to 25 μM.
Immediately before stimulation, cells were washed once with fresh assay medium. Then, 100 μL of the test samples was added in triplicate wells and the plates incubated for 20 hours in a humidified 37° C., 5% CO2 incubator. The assay medium from each well was collected and the IL-6 concentration in cell culture supernatants was determined by ELISA either immediately or after storage at −20° C.
A water-soluble tetrazolium salt (WST1) viability assay was immediately performed on the cells after the conditioned medium was collected using a WST1 reagent purchased from Roche. The concentration of IL-6 obtained from ELISA was normalized by the WST1 data.

In a further experiment the test system is DNFB-treated BALB/c mice. The experiment can be described thus: Murine model of delayed hypersensitivity (DNFB-induced ear edema). Here is the method:
We used a murine model of fluorodinitrobenzene (DNFB)-induced ear edema to test the anti-inflammatory activity of both orally dosed and intraperitoneally dosed exemplary compounds of the invention. BALB/c mice (Harlan Sprague-Dawley, Inc., male, 6-8 weeks old) were topically treated on their shaved abdomen with 30 μL of 0.5% 1-fluoro-2,4-dinitrobenzene (DNFB) (4:1 acetone:olive oil) once on Day 0 and once on Day 1.
For oral dosing (“PO”), exemplary compounds of the invention were either suspended at 3 mg/mL in 20% Cremophor EL (Sigma) (20:80; Cremophor:water) or dissolved at 1 mg/mL or 3 mg/mL in D-α-tocopherol polyethylene glycol 1000 succinate (TPGS; Sigma)/PEG-400/water (20:60:20). For intraperitoneal dosing (“IP”), exemplary compounds of the invention were dissolved in DMSO at a concentration of 5 mg/mL. On day 7, the test compound was administered (PO at either 10 mg/kg or 30 mg/kg; IP at 1, 3, or 10 mg/kg) to DNFB-treated mice. Commercially available anti-mouse IL-17A (BioLegend) administered intraperitoneally at 5 mg/kg in PBS was used as a positive control. Thirty minutes later, 20 μL of 0.2% DNFB was applied to the right ear of animals and vehicle ([…]:olive oil) was applied to the left ear. One and four hours after DNFB challenge, a subset of mice was exsanguinated and plasma prepared from the blood. Twenty-four hours after challenge, the remaining mice were euthanized, and their ears were removed and weighed to determine the amount of edema. Plasma was assayed for interleukin-6, TNF-α, CXCL1, and interferon-γ concentrations using commercially-available assays.

Experiment [2] has as its target recombinant human IL17a (binding to its receptor IL17R) (Homo sapiens, UniProt Q16552). The experiment can be described thus: IL-17 competition ELISA I (IL17a coated, IL17R/Fc binding). The settings on record: read-out: ELISA I. Here is the method: ELISA I: The ability of the compounds to block binding of IL17a to its receptor, IL17R, was analyzed in a competition ELISA format. High binding 96-well plates (Costar #9018) were coated with 20 nM of recombinant human IL17a (R&D Systems #317-ILB) in PBS (0.64 μg/mL), 100 μL/well, for 30 min at 37′C followed by 5 min at 4′C. Plates were then washed in PBST (PBS/0.05% Tween-20) on a plate washer, (Biotech EL-450) blocked with protein-free blocking buffer (Thermo Scientific #37573) in 250 μL/well for 30 min on shaker at room temperature, and then washed again. Compound dilutions prepared in PBST were added into the wells in duplicates followed by the addition of IL17R/Fc (R&D Systems #177-IR) at a final concentration of 12 nM. Plates were then incubated for 30 min at room temperature on the shaker. Wells with no compound served as a positive “no competitor” control, while wells with no IL17R/Fc and no compound served as a blank negative control. After an additional PBST wash, 50 ng/mL HRP-conjugated goat anti-human Fc IgG (KPL #04-10-20) was added to the plate for 30 min at room temperature, followed by PBST wash and addition of SureBlue™ TMB (KPL #52-00-03). After the sufficient color development, the reaction was fixed by the addition of 100 μL/well 0.5 N HCl and absorbance was measured at 450 nm on Biotek plate reader.
Data were processed using BioAssay Enterprise v10.1.4 (CambridgeSoft) software. Linear OD λ450 were plotted against log concentration (x) and fitted to a 4-parameter logistic equation. IC50 was calculated using positive ‘no competitor’ control data as an upper limit and blank control as a lower limit in each assay.
In general terms: ELISA stands for enzyme-linked immunosorbent assay.

As to `O=C1CNC(=O)[C@@H](Cc2ccc(NC(=O)[C@H](Cc3ccccc3Cl)NC(=O)Cc3ccccc3)cc2)NC(=O)CC2(CCCC2)CC(=O)N[C@H](C(=O)O)CCCCN1`, the IC50 in experiment [1] lay within 1000 to 10000 nM. Besides, the “reduction in TNF-α, IFN-γ and edema as compared to a PBS control or DMSO control” value in the experiment with DNFB-treated BALB/c mice (i.p. 10 mg/kg, FIG. 1) is “statistically significant reduction”. The “Reduction in edema (%)” value with DNFB-treated BALB/c mice (ip, 10 mg/kg, ear weight 24 h after DNFB challenge) is on record as 50.1%. Also, in the experiment with DNFB-treated BALB/c mice (ip, 10 mg/kg, plasma), the “IFNγ Reduction (%)” value was determined as 38.9% and the “TNFα Reduction (%)” value amounted to 25.5%. Besides, in experiment [2], the IC50 was < 100 nM.

These data come from patent publication US9284283B2, “Macrocyclic compounds for modulating IL-17” (ENSEMBLE THERAPEUTICS CORPORATION, priority 2012, dated 2016).
